Assay results taken from patent US20100143500A1, “Methods and Compositions for Inhibiting GSK-3 In Glial Cell Related Disorders” (THE OHIO STATE UNIVERSITY RESEARCH FOUNDATION, priority 2006, published 2010).

What was measured:
[1] = tested on: three additional glioma cell lines and two human glioblastoma biopsies (X12 and X14)
Procedure: Spheroids from 6 glioma cell lines were grown in the presence of LiCl (10 mM or 20 mM).
Cell lines and chemicals. The U87 and U87ΔEGFR cell lines were provided by Dr. Webster Cavenee (Ludwig Institute for Cancer Research, La Jolla, Calif.). The human glioblastoma biopsies, X12 and X14 (from Dr. C. David James, Mayo Clinic, Rochester, Minn.), were maintained as flank tumors in nude mice as described (5). All cells were grown in DMEM with 10% FBS and 1% penicillin-streptomycin.

[2] = tested on: U87 glioma cell spheroids; assay: U87 glioma spheroid invasion in collagen I matrix

O=C1NC(=O)C(c2ccccc2[N+](=O)[O-])=C1Nc1ccc(O)c(Cl)c1 [SB415286]
spheroid expansion as a percentage of control spheres [1]: dose dependent decrease in spheroid expansion | spheroid invasion in further glioma cell lines and biopsies [1]: observed in the full panel of cell lines | invasion of glioma spheroids [2]: dose-dependent blockade of invasion | reversibility of the invasion blockade [2]: reversible | spheroid expansion as a percentage of control spheres [2]: dose dependent decrease in spheroid expansion
